For 5 compounds, Ki and Kd results are on record in patent US7235366B1 (priority 1993, dated 2007).

Sequences of proteins named here, by UniProt entry; tags and fusion partners are left off. A change or cut given only in a name is not applied to a line headed by its entry.
UniProt P33534: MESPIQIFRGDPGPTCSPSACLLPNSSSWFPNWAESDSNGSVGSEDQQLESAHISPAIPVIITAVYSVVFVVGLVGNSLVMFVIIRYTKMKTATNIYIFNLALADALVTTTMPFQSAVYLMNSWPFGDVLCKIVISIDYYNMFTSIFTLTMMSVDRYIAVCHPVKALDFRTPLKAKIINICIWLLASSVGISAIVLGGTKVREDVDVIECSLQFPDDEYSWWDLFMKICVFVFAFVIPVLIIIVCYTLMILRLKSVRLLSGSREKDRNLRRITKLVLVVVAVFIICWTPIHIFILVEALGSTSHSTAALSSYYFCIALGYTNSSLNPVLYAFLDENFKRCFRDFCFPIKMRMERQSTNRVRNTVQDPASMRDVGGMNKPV
UniProt P35372, whole entry: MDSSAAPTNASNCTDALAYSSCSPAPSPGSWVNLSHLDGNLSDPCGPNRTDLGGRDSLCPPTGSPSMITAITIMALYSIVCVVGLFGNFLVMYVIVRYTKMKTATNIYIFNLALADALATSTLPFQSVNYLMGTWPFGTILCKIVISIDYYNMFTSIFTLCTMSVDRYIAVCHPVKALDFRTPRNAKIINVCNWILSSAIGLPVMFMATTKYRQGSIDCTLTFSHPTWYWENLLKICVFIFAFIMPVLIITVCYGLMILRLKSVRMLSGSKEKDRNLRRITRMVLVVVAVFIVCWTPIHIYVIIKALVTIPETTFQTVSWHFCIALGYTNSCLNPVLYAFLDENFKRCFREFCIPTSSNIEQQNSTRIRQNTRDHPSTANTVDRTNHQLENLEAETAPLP
UniProt P33535, whole entry: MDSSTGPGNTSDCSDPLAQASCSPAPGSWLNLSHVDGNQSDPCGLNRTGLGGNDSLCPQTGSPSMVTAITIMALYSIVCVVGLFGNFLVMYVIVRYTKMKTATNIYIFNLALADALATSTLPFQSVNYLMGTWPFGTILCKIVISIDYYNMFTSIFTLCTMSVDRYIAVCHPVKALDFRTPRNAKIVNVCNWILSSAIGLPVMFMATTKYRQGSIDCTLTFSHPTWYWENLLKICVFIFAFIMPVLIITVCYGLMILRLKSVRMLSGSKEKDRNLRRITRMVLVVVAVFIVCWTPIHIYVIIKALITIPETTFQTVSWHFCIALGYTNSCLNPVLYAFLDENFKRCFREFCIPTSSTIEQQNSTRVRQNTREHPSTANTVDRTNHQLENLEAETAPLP

Like-named read-outs stand apart in the source and are kept apart here.

What all share (assay): biochemical
The target in experiment [1] is cloned mouse κ receptor (Mus musculus, UniProt P33534).
For experiment [2], the target named is T1, cloned human μ opioid receptor (Homo sapiens, UniProt P35372).
T1 construct: This fragment includes the entire coding region of the human μ opioid receptor; expressed in transfected cells; host or cells: COS-7 (transient, pcDNA3)
The experiment is classed as binding.

Experiment [3] concerns the target cloned rat μ receptor (Rattus norvegicus, UniProt P33535).

One may read the Ki as the dissociation constant of the complex between target and ligand, obtained from inhibition or displacement. One may read the Kd as the free concentration of one partner at which half of the binding sites on the other are occupied at equilibrium, for simple one-to-one binding. Higher therefore signals weaker binding.

In the case of `CC(C)=CCN1CCC2(C)c3cc(O)ccc3CC1C2C` (centres unmarked) [pentazocine], the inhibitory constant (Ki) in experiment [1] amounted to 7.2 nM.

For the compound `CCC12CCN(CC3(O)CC3)C(Cc3ccc(O)cc31)C2(C)C` (racemic) [Bremazocine], the Ki in experiment [2] stood at 1.4 nM.

Regarding `CN1CC[C@]23CCCC[C@H]2[C@H]1Cc1ccc(O)cc13` [Levorphanol], the inhibition constant Ki in experiment [2] (read-out: Binding potencies (Ki-nM) for the cloned human μ opioid receptor [^3H] DAMGO) came out at 1.9 nM.

Compound `C[C@@H](NC(=O)[C@@H](N)Cc1ccc(O)cc1)C(=O)NCC(=O)N(C)[C@@H](Cc1ccccc1)C(=O)NCCO` [DAMGO, [D-Ala2,MePhe4,Gly-ol5]enkephalin] had an inhibition constant (Ki) in experiment [3] of 2 nM.

Compound `C[C@@H](NC(=O)[C@@H](N)Cc1ccc(O)cc1)C(=O)NCC(=O)N(C)[C@@H](Cc1ccccc1)C(=O)NCCO` [[^3H]DAMGO] registered a Kd in experiment [3] of 0.57 nM.
